{"source": "patent US20260102359A1", "about": "“COMBINATION TREATMENT OF DERMAL AND TRANSDERMAL FIBROTIC DISEASES, DISORDERS AND ASSOCIATED PAIN AND INFLAMMATION” (ERESINA, LLC, priority 2022, published 2026)"}
{"system": "hDMFa myofibroblast cells", "parameters": "key to the marks not given beside the values"}
{"compound": "CC1=C(/C=C/C(C)=C/C=C/C(C)=C/C=C/C=C(C)/C=C/C=C(C)/C=C/C2=C(C)CCCC2(C)C)C(C)(C)CCC1", "note": "[Cmpd 7, β-Carotene]", "Compound Myofibroblast Cytotoxicity Activity": "+++"}
{"compound": "O=C1C=CC(=O)C=C1", "note": "[Cmpd 36, 1,4-Benzoquinone]", "Compound Myofibroblast Cytotoxicity Activity": "++"}
{"compound": "Cn1c(=O)c2[nH]cnc2n(C)c1=O", "note": "[Cmpd 106, Aminophylline]", "Compound Myofibroblast Cytotoxicity Activity": "+++"}
{"compound": "O=C(OCCOCCO)c1ccccc1Nc1cccc(C(F)(F)F)c1", "note": "[Cmpd 441, Etofenamate]", "Compound Myofibroblast Cytotoxicity Activity": "+++"}
{"compound": "CC[C@H](C)C(=O)O[C@H]1C[C@@H](C)C=C2C=C[C@H](C)[C@H](CC[C@@H]3C[C@@H](O)CC(=O)O3)[C@H]21", "note": "[Cmpd 610, Lovastatin]", "Compound Myofibroblast Cytotoxicity Activity": "+++"}
{"compound": "(+)-Ketoconazole [Cmpd 12]", "Compound Myofibroblast Cytotoxicity Activity": "+++"}
{"compound": "Clindamycin alcoholate [Cmpd 280]", "Compound Myofibroblast Cytotoxicity Activity": "++"}
{"compound": "Dehydroepiandrosterone acetate [Cmpd 337]", "Compound Myofibroblast Cytotoxicity Activity": "++"}
{"compound": "Dovitinib (TKI258) Lactate [Cmpd 381]", "Compound Myofibroblast Cytotoxicity Activity": "+++"}
{"compound": "Mitomycin C [Cmpd 680]", "Compound Myofibroblast Cytotoxicity Activity": "++"}
{"compound": "Testosterone Enanthate [Cmpd 932]", "Compound Myofibroblast Cytotoxicity Activity": "+++++"}
